Activation data for 22 compounds are collected here from PubChem BioAssay AID504775 (Broad Institute, 2011).

This is a selection; strong and weak results do not stand in their true shares. Some results for these compounds are left out of this collection, so the calls shown say nothing about other tests. Active and inactive are the calls of the source.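 The calls were made as follows: active = mean replicate activation of at least 60% and every replicate at or above 60%; inconclusive = mean or all-replicate condition met, but not both; inactive = mean below 60% and not all replicates reaching 60%.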

A short description of this experiment: enhancers of HDL lipid transfer via mSR-BI – ldlA[mSR-BI] CHO cells, DiI fluorescence, primary screen (AID 504775).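 Also: 0% = median plate neutral-control signal and 100% = twice that signal.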 Particulars: DiI-HDL uptake fluorescence, 3 h, at 12.5 µM, hits give high values, 100 = double the neutral-control signal. Put shortly:
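Assay system: LDL receptor-deficient CHO ldlA cells overexpressing murine SR-BI / Medium: BSA-supplemented, HEPES-buffered Ham's F12, pH 7.4 / Probe or stimulus: DiI-labelled HDL at 10 µg/mL final / Timing: compound with DiI-HDL co-incubation, 3 h at 37 °C / Technique: bottom-read cell fluorescence after medium removal, ex 550/em 595 nm / Measure: HDL uptake via cellular fluorescence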
As to `COc1cccc(C(=O)NCC2(N3CCCCC3)CCCCC2)c1`, the activation was inactive: 2.95%.

For `COc1ccc(Cl)cc1C(=O)NCC1(N(C)C)CCCCC1`, the activation is inactive: 0.252%.

In the case of `COc1cc(C(=O)NCC2(N(C)C)CCCCC2)c([N+](=O)[O-])cc1OC`, the activation was inactive: 6.86%.

Consider `CN(C)C1(CNC(=O)c2ccc(Br)cc2)CCCCC1`, for which the activation is inactive: 54.8%.

Take `CN(C)c1cccc(C(=O)NCC2(N(C)C)CCCCC2)c1`: the activation is inactive: 36.6%.

On to `CC(C)Oc1ccc(C(=O)NCC2(N(C)C)CCCCC2)cc1`, for which the activation was inactive: -7.08%.

Regarding `O=C(OCCN1CCCC1)C(O)(c1ccccc1)c1ccccc1`, the activation is inactive: -1.28%.

On to `O=C(OC1CN2CCC1CC2)C(CO)(c1ccccc1)c1ccccc1` (configuration not stated), for which the activation is inactive: 29%.

In the case of `Cc1ccc(C(=O)NCC2(N3CCCCC3)CCCCC2)cc1`, the activation was inactive: 18%.

With `CC(C)N1C(=O)CC2(CCN(CCOC(=O)C(O)(c3ccccc3)c3ccccc3)CC2)C1=O`, the activation was inactive: 18.6%.

As to `CCN(CC)CC(C)C(C)OC(=O)C(O)(c1ccccc1)c1ccccc1` (configuration not stated), the activation is inactive: 10.9%.

As for `COc1cc(SC)ccc1C(=O)NCC1(N(C)C)CCCCC1`, the activation was inactive: 25.3%.

Consider `CN1[C@@H]2CC[C@H]1CC(OC(=O)C(O)(c1ccccc1)c1ccccc1)C2` (some centres not stated), for which the activation was inactive: 12.2%.

Regarding `O=C(NCC1(N2CCCCC2)CCCCC1)c1cc([N+](=O)[O-])ccc1Cl`, the activation is inactive: 13.3%.

For `CCN1CCCC(OC(=O)C2(O)c3ccccc3C=Cc3ccccc32)C1` (configuration not stated), the activation was inactive: 37.4%.

With `Cc1cc(C(=O)NCC2(N3CCCCC3)CCCCC2)ccc1[N+](=O)[O-]`, the activation was inactive: -3.18%.

For `COc1ccc(C(=O)NCC2(N(C)C)CCCCC2)cc1`, the activation was inactive: 20.7%.

For `C=CCN1CCN(CCOC(=O)C(O)(c2ccccc2)c2ccccc2)CC1`, the activation was inactive: 5.79%.

For the compound `O=C(NCC1(N2CCCCC2)CCCCC1)c1cc(F)c(F)cc1Cl`, the activation was inactive: 0.523%.

Regarding `Cc1ccccc1C(=O)NCC1(N2CCCCC2)CCCCC1`, the activation is inactive: 12.3%.

For `CN(C)c1ccc(C(=O)NCC2(N(C)C)CCCCC2)cc1`, the activation was inactive: -10.3%.

As for `CN(C)C1CCCC1OC(=O)C(O)(c1ccccc1)c1ccccc1` (configuration not stated), the activation was inactive: 9.34%.
